Chains of the proteins cited; added tags and fusions are not shown. Lines headed by an entry give the natural chain unless they say otherwise; changes in a name come on top.
UniProt P09619: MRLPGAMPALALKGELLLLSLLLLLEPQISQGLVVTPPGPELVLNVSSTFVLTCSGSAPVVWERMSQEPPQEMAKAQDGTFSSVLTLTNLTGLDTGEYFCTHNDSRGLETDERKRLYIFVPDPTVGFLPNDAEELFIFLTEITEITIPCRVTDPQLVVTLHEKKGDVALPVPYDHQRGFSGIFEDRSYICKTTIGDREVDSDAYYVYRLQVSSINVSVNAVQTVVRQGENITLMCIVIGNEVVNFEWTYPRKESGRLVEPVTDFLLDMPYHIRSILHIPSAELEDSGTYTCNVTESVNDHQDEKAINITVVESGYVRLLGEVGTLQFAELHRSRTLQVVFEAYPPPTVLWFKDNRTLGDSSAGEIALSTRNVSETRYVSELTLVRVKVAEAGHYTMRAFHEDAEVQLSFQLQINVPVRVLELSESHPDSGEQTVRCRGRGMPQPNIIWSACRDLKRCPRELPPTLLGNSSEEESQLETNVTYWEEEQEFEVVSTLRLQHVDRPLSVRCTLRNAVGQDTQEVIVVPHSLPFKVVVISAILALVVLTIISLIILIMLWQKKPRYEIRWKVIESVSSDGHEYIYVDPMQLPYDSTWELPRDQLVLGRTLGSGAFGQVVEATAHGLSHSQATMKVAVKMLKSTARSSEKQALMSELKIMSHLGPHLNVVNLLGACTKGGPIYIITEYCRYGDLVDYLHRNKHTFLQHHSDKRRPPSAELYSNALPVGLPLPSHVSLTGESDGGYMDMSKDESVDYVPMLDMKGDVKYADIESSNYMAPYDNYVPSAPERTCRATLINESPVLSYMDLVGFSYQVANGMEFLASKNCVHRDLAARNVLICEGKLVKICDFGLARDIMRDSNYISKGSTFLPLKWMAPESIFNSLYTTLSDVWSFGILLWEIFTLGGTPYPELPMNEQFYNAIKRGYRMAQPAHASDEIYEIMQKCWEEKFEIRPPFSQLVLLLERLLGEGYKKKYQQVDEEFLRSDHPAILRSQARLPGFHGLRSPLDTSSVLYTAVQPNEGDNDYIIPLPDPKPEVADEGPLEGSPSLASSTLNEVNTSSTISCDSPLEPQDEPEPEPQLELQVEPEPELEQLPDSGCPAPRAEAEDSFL

In patent US7632645B1, “EGF receptor transactivation by G-protein-coupled receptors requires metalloproteinase cleavage of proHB-EGF” (Max-Planck-Gesellschaft zur forderung der Wissenschaften …, priority 1999, dated 2009):

Target: T1, EP-R chimera (EGFR extracellular, PDGFR transmembrane and cytoplasmic signalling domain) (Homo sapiens, UniProt P00533+P09619)
T1 construct: the platelet-derived growth-factor receptor (PDGFR) transmembrane and cytoplasmic signalling domain; human EGFR extracellular domain (fusion partner); expressed in transfected cells
Experiment: Tyrosine phosphorylation of EP-R chimera in Rat-1/EP-R cells (immunoprecipitation with mAb 108.1, αPY immunoblot)
Type: cell-based
Conditions: tyrphostin (AG1478 250 nM, AG1295 1 μM) added 15 minutes before thrombin 2 U/ml, FIG. 1b

effect on thrombin-induced tyrosine phosphorylation of the chimeric receptor EP-R: but not
SMILES: COc1cc2ncnc(Nc3cccc(Cl)c3)c2cc1OC [AG1478]
